One test has as its target T1, α2 GlyR (Homo sapiens, UniProt P23416).
T1 construct: expressed in transfected cells; host or cells: HEK293
T1 sequence (P23416 28-452): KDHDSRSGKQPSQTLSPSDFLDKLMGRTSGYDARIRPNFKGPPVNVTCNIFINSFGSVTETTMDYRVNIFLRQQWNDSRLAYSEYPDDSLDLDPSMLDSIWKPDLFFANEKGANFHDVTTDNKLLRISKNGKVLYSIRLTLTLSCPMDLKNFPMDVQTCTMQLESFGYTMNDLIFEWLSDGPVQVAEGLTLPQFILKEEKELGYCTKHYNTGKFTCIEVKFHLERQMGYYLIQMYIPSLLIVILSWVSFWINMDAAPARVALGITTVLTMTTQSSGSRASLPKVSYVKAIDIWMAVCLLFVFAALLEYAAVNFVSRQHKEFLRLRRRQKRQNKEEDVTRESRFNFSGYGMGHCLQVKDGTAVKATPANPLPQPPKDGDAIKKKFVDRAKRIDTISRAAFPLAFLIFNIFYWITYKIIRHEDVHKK
It is filed as cell-based. As to conditions: read-out: Averaged glycine EC50. The protocol: (§1) plated into 60-mm culture dishes and were transfected when approx. 80% confluent. YFP and GlyR chloride channel subunits were transfected in 1∶1 (YFP and α1-3 GlyR homomers) or 2∶1∶1 ratio (YFP, GlyR α1-3 homo and α1-3β GlyR heteromers) with a total cDNA quantity of 1 µg. Cells were transfected using calcium phosphate precipitation transfection technique, as described in Sambrook et al.. […] We have published a detailed comparison of five transient transfection methods employed routinely in the laboratory for this purpose.
(§2) The human α1, α2 and α3 GlyR plasmid DNAs were subcloned into the pcDNA3.1 plasmid vector and the human β subunit plasmid DNA was subcloned into pIRES2-EGFP plasmid vector. […]
(§3) Following termination of transfection, cells were trypsinized by adding 0.7 mL of 0.25% trypsin–EDTA solution (Gibco BRL), resuspended into DMEM, and 2.5×10^3 cells, suspended in 40 µL DMEM, were plated into each well of a transparent 384-well plate for fluorescence imaging experiments. […]
(§4) Images of fluorescent cells were segmented and quantitatively analyzed using a modified version of DetecTIFF® software. In brief, images were segmented using an iterative size and intensity-based thresholding algorithm and the fluorescence signal of identified cells was calculated as the mean of all pixel values within the area of a cell. […]

The chains behind the UniProt entries cited, without tags or fusion partners. Residues count along the entry.
UniProt P48167, 23-497: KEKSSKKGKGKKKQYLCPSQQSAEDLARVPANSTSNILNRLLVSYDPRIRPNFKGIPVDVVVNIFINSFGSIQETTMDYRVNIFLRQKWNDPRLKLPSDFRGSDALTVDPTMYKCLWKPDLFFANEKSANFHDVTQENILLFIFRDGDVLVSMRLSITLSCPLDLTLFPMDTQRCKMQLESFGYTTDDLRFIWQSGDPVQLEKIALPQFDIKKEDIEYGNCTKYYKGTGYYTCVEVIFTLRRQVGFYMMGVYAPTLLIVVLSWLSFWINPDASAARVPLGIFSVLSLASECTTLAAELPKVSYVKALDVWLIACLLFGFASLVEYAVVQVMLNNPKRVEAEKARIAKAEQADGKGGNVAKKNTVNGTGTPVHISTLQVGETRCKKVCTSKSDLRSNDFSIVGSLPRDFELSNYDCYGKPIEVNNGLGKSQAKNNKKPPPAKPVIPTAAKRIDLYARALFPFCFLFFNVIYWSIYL

In the next test the target is T2, α2β GlyR (Homo sapiens, UniProt P23416+P48167).
T2 construct: expressed in transfected cells; host or cells: HEK293
It is filed as cell-based. As to conditions: read-out: Average half-maximal activation by glycine (EC50), control conditions. The protocol:
as §1, §2, §3, §4

The results in this text go back to PMC3592791, “Fluorescence-Based High-Throughput Functional Profiling of Ligand-Gated Ion Channels at the Level of Single Cells” (PLoS ONE, 2013).

One may read the EC50 as the concentration giving half of the maximal effect. As for `NCC(=O)O` [glycine], the concentration giving a half-maximal response (EC50) on α2 GlyR was 49 ± 2 µM; at α2β GlyR it was 30 ± 2 µM.
